From ChEMBL document CHEMBL6134838, “Discovery of c-Kit as a New Therapeutic Target in LPS-Induced Acute Lung Injury through Novel Phenylamide Derivative D9” (J Med Chem, 2025) come the findings set out here.

Amino acid sequences for entries named in this document (tags omitted). A change or cut given only in a name is not applied to a line headed by its entry.
UniProt P36888, whole entry: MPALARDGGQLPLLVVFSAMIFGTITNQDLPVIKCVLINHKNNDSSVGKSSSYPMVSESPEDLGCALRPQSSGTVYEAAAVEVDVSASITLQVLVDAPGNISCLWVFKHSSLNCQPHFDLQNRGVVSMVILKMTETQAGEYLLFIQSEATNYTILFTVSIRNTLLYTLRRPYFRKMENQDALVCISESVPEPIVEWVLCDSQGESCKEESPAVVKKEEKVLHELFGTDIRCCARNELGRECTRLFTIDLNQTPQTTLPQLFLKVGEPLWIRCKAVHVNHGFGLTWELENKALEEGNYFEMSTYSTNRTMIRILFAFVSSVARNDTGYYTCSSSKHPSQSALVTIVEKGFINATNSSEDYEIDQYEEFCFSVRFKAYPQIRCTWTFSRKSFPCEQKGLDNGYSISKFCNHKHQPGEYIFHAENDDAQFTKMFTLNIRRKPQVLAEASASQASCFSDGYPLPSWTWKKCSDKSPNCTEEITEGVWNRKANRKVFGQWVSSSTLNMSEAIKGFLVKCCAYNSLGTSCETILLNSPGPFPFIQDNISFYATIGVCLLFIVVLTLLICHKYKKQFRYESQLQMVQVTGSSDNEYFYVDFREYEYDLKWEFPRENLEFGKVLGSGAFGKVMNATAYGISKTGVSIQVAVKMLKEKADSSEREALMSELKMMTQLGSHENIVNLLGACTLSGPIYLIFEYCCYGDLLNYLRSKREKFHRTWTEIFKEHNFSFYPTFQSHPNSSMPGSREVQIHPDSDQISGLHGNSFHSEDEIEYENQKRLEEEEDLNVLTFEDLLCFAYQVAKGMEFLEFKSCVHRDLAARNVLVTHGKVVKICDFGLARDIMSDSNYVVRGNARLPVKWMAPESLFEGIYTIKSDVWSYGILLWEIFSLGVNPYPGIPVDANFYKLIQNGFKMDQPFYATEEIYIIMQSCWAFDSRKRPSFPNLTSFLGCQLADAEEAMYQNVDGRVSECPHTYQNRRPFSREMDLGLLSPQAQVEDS
UniProt P05532: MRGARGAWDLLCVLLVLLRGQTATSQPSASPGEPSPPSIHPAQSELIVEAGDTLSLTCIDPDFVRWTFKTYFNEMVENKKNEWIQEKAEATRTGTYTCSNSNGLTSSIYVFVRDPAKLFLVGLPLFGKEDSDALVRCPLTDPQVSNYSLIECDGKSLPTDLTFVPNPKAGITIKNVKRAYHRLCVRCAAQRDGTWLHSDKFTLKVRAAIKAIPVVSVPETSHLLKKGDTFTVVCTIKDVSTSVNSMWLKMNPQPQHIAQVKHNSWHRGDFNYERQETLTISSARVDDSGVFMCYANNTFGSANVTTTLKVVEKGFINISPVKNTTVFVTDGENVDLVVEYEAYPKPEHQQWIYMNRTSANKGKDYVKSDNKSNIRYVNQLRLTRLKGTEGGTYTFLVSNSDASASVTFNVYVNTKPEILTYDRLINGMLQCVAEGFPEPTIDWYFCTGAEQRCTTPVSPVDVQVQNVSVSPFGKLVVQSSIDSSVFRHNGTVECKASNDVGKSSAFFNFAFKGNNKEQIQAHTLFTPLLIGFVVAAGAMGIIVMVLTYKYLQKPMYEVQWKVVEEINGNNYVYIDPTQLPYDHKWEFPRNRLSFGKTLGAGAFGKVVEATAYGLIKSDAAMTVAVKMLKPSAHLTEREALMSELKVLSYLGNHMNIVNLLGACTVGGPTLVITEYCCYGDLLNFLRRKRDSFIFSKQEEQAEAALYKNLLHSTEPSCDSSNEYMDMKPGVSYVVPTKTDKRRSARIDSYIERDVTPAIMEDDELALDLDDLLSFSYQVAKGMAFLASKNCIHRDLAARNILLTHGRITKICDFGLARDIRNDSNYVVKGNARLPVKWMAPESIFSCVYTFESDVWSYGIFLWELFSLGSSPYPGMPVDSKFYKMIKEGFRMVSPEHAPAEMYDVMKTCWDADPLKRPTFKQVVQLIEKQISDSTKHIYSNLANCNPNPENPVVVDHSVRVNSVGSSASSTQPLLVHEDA
UniProt P78368: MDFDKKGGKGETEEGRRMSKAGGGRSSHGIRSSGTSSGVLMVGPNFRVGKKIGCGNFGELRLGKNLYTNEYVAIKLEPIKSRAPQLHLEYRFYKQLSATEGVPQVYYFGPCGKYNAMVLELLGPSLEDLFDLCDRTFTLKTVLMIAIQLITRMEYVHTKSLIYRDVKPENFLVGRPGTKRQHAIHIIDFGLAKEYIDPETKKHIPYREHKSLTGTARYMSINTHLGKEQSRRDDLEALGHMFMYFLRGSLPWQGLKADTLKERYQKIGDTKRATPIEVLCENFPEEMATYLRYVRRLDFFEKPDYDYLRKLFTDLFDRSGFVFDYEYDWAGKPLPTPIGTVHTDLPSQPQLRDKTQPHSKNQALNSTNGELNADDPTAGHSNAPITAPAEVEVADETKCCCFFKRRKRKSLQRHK
UniProt Q00536: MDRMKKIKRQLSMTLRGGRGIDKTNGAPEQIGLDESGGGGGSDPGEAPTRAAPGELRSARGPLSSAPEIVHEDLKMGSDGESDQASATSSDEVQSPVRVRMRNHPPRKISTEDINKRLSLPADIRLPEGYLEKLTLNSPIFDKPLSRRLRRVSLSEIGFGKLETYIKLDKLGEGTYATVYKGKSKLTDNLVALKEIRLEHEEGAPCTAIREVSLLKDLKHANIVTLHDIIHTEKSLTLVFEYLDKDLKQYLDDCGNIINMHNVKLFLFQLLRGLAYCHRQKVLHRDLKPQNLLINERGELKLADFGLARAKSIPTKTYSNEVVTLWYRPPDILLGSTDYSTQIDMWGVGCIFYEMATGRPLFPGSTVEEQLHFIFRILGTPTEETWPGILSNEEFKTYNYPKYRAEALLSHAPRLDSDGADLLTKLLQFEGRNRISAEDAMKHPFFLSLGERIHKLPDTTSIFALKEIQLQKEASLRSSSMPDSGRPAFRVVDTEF

In data set [1] the test system is J774.A1. As to the kind of experiment: Antiinflammatory activity against mouse J774.A1 cells assessed as inhibition of LPS-stimulated IL-6 release measured for 24 hrs by ELISA method relative to control. The format is functional. For orientation: In an ELISA, binding on a coated surface is turned into a signal by an enzyme label.
A short description of data set [2]: Acute toxicity in ICR mouse assessed as liver damage at 500 mg/kg, IG measured up to 10 days by H and E staining based analysis. The format is organism-based. To be noted: in vivo, po, 240 h, time < 10 day.
The target in data set [3] is Receptor-type tyrosine-protein kinase FLT3 (Homo sapiens) (UniProt P36888). Description: Inhibition of FLT3 (unknown origin) assessed as residual activity at 10 uM relative to control.
Data set [4] is described as follows: Acute toxicity in ICR mouse assessed as heart damage at 500 mg/kg, IG measured up to 10 days by H and E staining based analysis. The settings on record: in vivo, po, 240 h, time < 10 day. The format is organism-based.
The target in data set [5] is Mast/stem cell growth factor receptor Kit (Mus musculus) (UniProt P05532). Description: Induction of thermal stabilization of c-KIT in mouse J774.A1 cells at 45 to 57 degreeC at 10 uM incubated for 4 hrs by CETSA analysis. The format is cell-based.
For data set [6], the target named is Casein kinase I isoform gamma-2 (Homo sapiens) (UniProt P78368). Description: Inhibition of CK1g2 (unknown origin) assessed as residual activity at 10 uM relative to control.
Data set [7] is described as follows: Toxicity in c-KIT knockdown C57BL/6 mouse assessed as lung damage at 20 mg/kg, IG by H and E staining based analysis. The format is organism-based. To be noted: in vivo, po.
Data set [8] addresses Mast/stem cell growth factor receptor Kit (Mus musculus) (UniProt P05532). As to the kind of experiment: Inhibition of LPS-induced c-Kit phosphorylation in mouse J774.A1 cells at 5 uM incubated for 24 hrs by Western blot analysis. The format is cell-based.
A short description of data set [9]: Toxicity in C57BL/6 mouse assessed as lung damage at 20 mg/kg, IG by H and E staining based analysis. The format is organism-based. To be noted: in vivo, po.
Data set [10] in a line: Acute toxicity in ICR mouse assessed as spleen damage at 500 mg/kg, IG measured up to 10 days by H and E staining based analysis. The format is organism-based. The settings on record: in vivo, po, 240 h, time < 10 day.
Data set [11] in a line: Acute toxicity in ICR mouse assessed as lung damage at 500 mg/kg, IG measured up to 10 days by H and E staining based analysis. The format is organism-based. The settings on record: in vivo, po, 240 h, time < 10 day.
Data set [12] in a line: Acute toxicity in ICR mouse assessed as kidney damage at 500 mg/kg, IG measured up to 10 days by H and E staining based analysis. The format is organism-based. The settings on record: in vivo, po, 240 h, time < 10 day.
The nature of data set [13]: Toxicity in C57BL/6 mouse assessed as body weight loss at 20 mg/kg, IG measured every 12 hrs for 7 days. The format is organism-based. The settings on record: in vivo, po.
The target of data set [14] is Cyclin-dependent kinase 16 (Homo sapiens) (UniProt Q00536). Description: Inhibition of PCTAIRE1 (unknown origin) assessed as residual activity at 10 uM relative to control.
Data set [15] relates to Mus musculus. As to the kind of experiment: Anti-inflammatory activity against CLP-induced sepsis C57BL/6 mouse model assessed as reduction in wet/dry ratio in lung at 20 mg/kg, IG pretreated with compound for 1 hr followed by CLP induction and measured every 12 hrs for 7 days. The format is functional, organism-based. To be noted: time 169.0 hrs.

Active and inactive are the calls of the source. The calls are words filed in the database; no cut-off is given here.

Turning to `O=C(NCCc1cccs1)c1cc(Oc2ccc(NC(=O)c3cn(-c4ccc(F)cc4)c4ccccc4c3=O)cc2)ccn1`, the “inhibition (INH)” value in [1] worked out at 74.04%. Also, the Activity result is “Non-toxic” in data set [2]; 70% in [3]; “Non-toxic” in data set [4]; 70% in [6]; “Non-toxic” in data set [7]; “Non-toxic” in data set [9]. Besides, the Activity result in data set [10] is “Non-toxic”; in data set [11], “Non-toxic”; in data set [12] it was “Non-toxic”; in data set [13], “Non-toxic”; in data set [14], 70%. Besides, the outcome in data set [5] was Active. For the same compound, in [8], the inhibition result is “Active”.

On to `O=C(NCCc1cccs1)c1cc(Oc2ccc(NC(=O)c3cn(-c4ccc(F)c(Cl)c4)c4ccccc4c3=O)cc2F)ccn1`, for which the result in data set [15] was Active.

With `O=C(NCCCN1CCOCC1)c1cc(Oc2ccc(NC(=O)c3cn(-c4ccc(F)cc4)c4ccccc4c3=O)cc2)ccn1`, the inhibition entry in data set [1] was “inactive”.
